Assay results: PMC12559008 (Nature cancer, 2025)

Conditions: mouse, in vivo, iv

Taxol
Injected PTX dose (%), Tumor: 0.11%
T1/2 (blood kinetics): 30.6 ± 23.4 min
